# Ab-14 heavy chain CDR variants: yeast mating affinities

All variants were tested on one target, the spike HR2 peptide PDVDLGDISGINAS (SARS-CoV-2).

Each scFv is VH, a 15-residue (Gly4Ser)3 linker, VL, as in the parent Ab-14, and differs from it in the CDRs of the heavy chain only.
VH: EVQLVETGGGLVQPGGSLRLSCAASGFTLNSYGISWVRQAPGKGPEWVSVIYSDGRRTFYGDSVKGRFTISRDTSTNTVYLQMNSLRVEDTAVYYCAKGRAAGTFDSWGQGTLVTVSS
VL: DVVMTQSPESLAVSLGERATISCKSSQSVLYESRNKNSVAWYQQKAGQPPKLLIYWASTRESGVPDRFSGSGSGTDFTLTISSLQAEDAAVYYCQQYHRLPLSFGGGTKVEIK

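Phage display of a naive human antibody library on the peptide gave the parent. This is the validation round: designs drawn from the data on random variants, tested in the same kind of assay. Several design methods are mixed in this list. The assay is AlphaSeq: two haploid yeast populations carry antibody and antigen on their surface. Pairs that bind mate more often; barcode pairs of the diploids are counted by sequencing. Read counts were normalised to the haploid input and turned into Kd by a linear fit to BCL2-family pairs of known affinity, for each replicate. Mating was done six times.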

The parent's heavy chain CDRs are GFTLNSYGIS, VIYSDGRRTFYGDSVK, GRAAGTFDS; each variant's own CDRs replace them letter for letter.
Variants here have more than six changes.
Kd is apparent (estimated from mating counts) and averaged on the log scale over replicates with a signal. Smaller is tighter.
"not detected" marks a missing value. The strain was present, yet no cells mated with the target were sequenced in any replicate, which points to weak or no binding.
The range of this assay differs from that of the first round, and the authors advise against merging the two.
The authors averaged sequences with at least three values out of six and counted those with two or fewer as poor binders.
The parent sequence was in this pool as ten entries: three were never detected, three once, and four in most replicates, with averages from 2.2 nM to 240 nM.
Three control strains display no target. For all heavy chain designs, 1% of the pairings with them gave a signal, with a median of 120 nM and one signal in twenty below 7.0 nM, so weak values seen in few replicates may be background.

CDR-H1	CDR-H2	CDR-H3	apparent Kd	detected
GFDLNEYGIS	VIYADGRRTFYTDSVK	GNNAGTFIS	23 nM	6/6
GFDLNEYGIS	VIYADGMRTAYVDSVK	GETAGTFDL	990 pM	6/6
GFDVDEQGIS	VIYADGLRSQYANSVK	GANGGMFFQ	not detected	0/6
GDNLDEYGIS	VIYADGQRTAYSDPVK	GEWGVTVGK	not detected	0/6
GFDLDEYGIS	VIYADGKRTAYADSVK	GQNAGTFDT	720 pM	6/6
GFDLDEYGIS	VIYADGKRTAYADSVK	GTNAGTFDQ	490 pM	6/6
GFSLDEYGIS	VIYADGRRTFYADSVK	GNSAGTFDK	1.2 nM	6/6
GFDLDEYGIS	VIYADGSRTAYSDSVK	GNNAGTFDV	420 pM	6/6
GFDLDEYGIS	VIYADGKRTFYADSVK	GENAGTFDV	550 pM	6/6
GFDLNEYGIS	VIYADGVRTAYVDDVK	GNVAGTFDL	410 pM	6/6
GFDLNEYGIS	VIYADGVRTAYSDSVK	GETAGTFDV	150 pM	6/6
GFDLEEYGIS	VIYADGMRTAYADSVK	GNQAGTFDV	510 pM	6/6
GFDLNEYGIS	VIYADGKRTAYADKVK	GNVAGTFDI	120 pM	6/6
GFNLDEYGIS	VIYADGTRRYYADSFK	GDEVVVNSI	not detected	0/6
GFDLNEYGIS	VIYADGRRTAYIDSVK	GNVAGTFDM	150 pM	6/6
GFDLNEYGIS	VIYADGQRTAYADSVK	GNQAGTFDQ	490 pM	6/6
GFDLNEYGIS	VIYADGRRTAYVDDVK	GNNAGTFDV	200 pM	6/6
GFNLNEYGIS	VIYADGRRTFYADSVK	GEVAGTFDM	420 pM	6/6
GATLSQYGIS	VWYSDGWRTFYSDSVK	GRAAGFFRS	not detected	0/6
GFDLNEYGIS	VIYADGMRTAYSDKVK	GENAGTFDI	640 pM	6/6
GFALDEYGIS	VIYADGSRTVYAGDVK	GMLGAAFDM	not detected	0/6
GFGLGEYGIS	VIYADGTRTAYVTKVK	GVIAGMFFT	not detected	0/6
GFDLEDYGIS	VIYADGRRTAYIDSVK	GEVAGTFDS	390 pM	6/6
GFPIDEYGIS	VIYADGRRTVYSDNVK	GNYGASIKI	not detected	0/6
GFDLNEYGIS	VIYADGQRTAYADSVK	GNQAGTFDM	500 pM	6/6
GFDLNEYGIS	VIYADGVRTAYADSVK	GQVAGTFDQ	230 pM	6/6
GFDLNEYGIS	VIYADGVRQAYADSVK	GNVAGTFDV	400 pM	6/6
GFDLNEYGIS	VIYADGMRTAYSDDVK	GEVAGTFDI	160 pM	6/6
GFDLNEYGIS	VIYADGSRTVYADSVK	GNVAGTFDT	230 pM	6/6
GFDLNEYGIS	VIYADGMRTFYSDSVK	GTNGGTFDM	1.9 nM	6/6
GFDLDEYGIS	VIYADGMRTAYIDSVK	GNNAGTFDV	3.2 nM	6/6
GFDLDEYGIS	VIYADGRRSAYHDSFK	GQLGGVSFV	not detected	0/6
GFDLDEYGIS	VIYADGMRTAYADSVK	GQNAGTFDQ	450 pM	6/6
GFQLNEYGIS	VIYADGKRSEYQDSVK	GGNNSSFSL	not detected	0/6
GFDLNEYGIS	VIYADGMRTSYADSVK	GNTAGTFDI	230 pM	6/6
GFDLDEYGIS	VIYADGRRTFYTDSVK	GNVAGTFDE	140 pM	6/6
GFDLNEYGIS	VIYADGVRTYYADSVK	GTNAGTFDV	280 pM	6/6
GFDLDEYGIS	VIYADGMRTAYTDKVK	GNVAGTFDV	340 pM	6/6
GFDLDEYGIS	VIYADGRRTFYADSVK	GETAGTFLS	220 pM	6/6
GFDLDEYGIS	VIYADGVRTAYSDSVK	GETAGTFDV	530 pM	6/6
GADINEYGIS	VIYADGIRSAYAQSVK	GEHGSQFDI	not detected	0/6
GFDLNEYGIS	VIYADGSRTAYADSVK	GSNAGTFDV	360 pM	6/6
GFNLDEYGIS	VIYADGRRTFYADSVK	GEHAGTFDT	150 pM	6/6
GFDIQDLGIS	VIYADGQRTAYSDGFK	GLIAGTFNT	920 pM	6/6
GFNLDEYGIS	VIYADGMRTAYADSVK	GENAGTFDI	3.2 nM	6/6
GFDLNEYGIS	VIYADGKRTAYTDSVK	GENAGTFDM	790 pM	6/6

The first 5 variants above that were never detected:

CDR-H1,CDR-H2,CDR-H3,apparent Kd,detected
GFDVDEQGIS,VIYADGLRSQYANSVK,GANGGMFFQ,not detected,0/6
GDNLDEYGIS,VIYADGQRTAYSDPVK,GEWGVTVGK,not detected,0/6
GFNLDEYGIS,VIYADGTRRYYADSFK,GDEVVVNSI,not detected,0/6
GATLSQYGIS,VWYSDGWRTFYSDSVK,GRAAGFFRS,not detected,0/6
GFALDEYGIS,VIYADGSRTVYAGDVK,GMLGAAFDM,not detected,0/6

Data: MIT Lincoln Laboratory AlphaSeq set, Li et al. 2023, doi:10.1038/s41467-023-39022-2, as distributed in FLAb.